# A selection: hits, their analogues and other compounds. The true share with any hit is near 4.2%.
# MC4R ag barr = activates human MC4R beta-arrestin recruitment | activation, % at 8.9 µM | P32245 | U2OS MC4R beta-arrestin complementation, luminescence; percent of melanotan II response, DMSO zero | 360,000 tested, 0.98% active | AID 540308;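 active means activation above a per-plate cutoff, the mean activation of sample wells on that plate plus 3 SD, cut at about 8% in these data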
# UUG fidelity = modulators of start codon recognition fidelity in yeast; S. cerevisiae UUG-firefly luciferase reporter, luminescence/redox ratio; activity score, % at 18.7 µM; hit rate 0.13% among 350,000; AID 602363;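 active = replicate mean at a twofold rise or more, about +100% in these data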;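 note: firefly luciferase made from a UUG start codon reports start codon fidelity; reporter light over untreated wells divided by growth signal over untreated wells; some hits fall short of that in this replicate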
# NALP1 inh = blocks the NALP1 inflammasome reconstituted in yeast; S. cerevisiae NALP1/ASC/caspase-1 growth, X-gal OD620, 72 h; inhibition, % at 10 µM; 280,000 tested, 0.61% active; AID 2071; in the data active means inhibition mostly above about 24%, no sharp cut-off; inactive means mostly below about 32%
# MC4R antag cAMP = blocks human MC4R cAMP signaling; P32245; MC4R-expressing cells, MTII-stimulated cAMP, LANCE TR-FRET; inhibition, % at 6.5 µM; 360,000 tested, 0.48% active;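 active means inhibition above its plate's cutoff, the mean of tested wells on that plate plus 3 SD, cut at about 29% in these data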;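 further: 0% = Melanotan II alone and 100% = Melanotan II plus saturating MCL0020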
#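 Test system: U2OS cells stably expressing human melanocortin 4 receptor (MC4R); also added: Melanotan II challenge; compound: 6.5 µM single dose; timing: 30-min compound preincubation, 1-h Melanotan II challenge, 1-h detection, room temperature; signal: Eu-cAMP/anti-cAMP TR-FRET, emission 671 nm; repeats: one well per compound, no replicates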
# HDAC3 inh = inhibitors of human histone deacetylase 3 | recombinant HDAC3, fluorogenic peptide/trypsin coupled, fluorescence | inhibition, % at 8.3 µM | 320,000 tested, 0.15% active | AID 2718; in the data active means inhibition above about 26%, passing the limit was not always enough; inconclusive means no clear call, values can overlap the other calls
# ALR inh = human ALR oxidase inhibition via reduced H2O2 | inhibition, % (concentration not given with the values) | purified ALR, DTT oxidation, H2O2 HRP-luminol luminescence | hit rate 3.8% among 290,000;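 active = mean and each replicate at 75% or more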;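 also: stock transfer was 7.5 nL into about 7.5 µL; 0% = neutral wells and 100% = wells with inactivated enzyme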
# * marks the source's active call; other numbers are inactive results; ? = inconclusive; . = no result given.
SMILES,MC4R ag barr,UUG fidelity,NALP1 inh,MC4R antag cAMP,HDAC3 inh,ALR inh
CCCCc1c(O)nc(SCC(=O)Nc2ccc3c(c2)CCC3)[nH]c1=O,-1.9,-10.5,-1.4,8.6,-0.3,98.8*
CCc1c(O)nc(SCC(=O)Nc2ccc3c(c2)CCC3)[nH]c1=O,-0.4,-10.0,13.6,5.4,0.2,100.2*
CCCN1CCc2nc(SCC(=O)Nc3ccc(C)c(Cl)c3)[nH]c(=O)c2C1,0.8,0.1,5.7,19.7,4.3,98.1*
Cc1cc(C)cc(NC(=O)CSc2nc3c(c(=O)[nH]2)CN(Cc2ccc(F)cc2)CC3)c1,0.3,.,15.3,0.9,0.9,-32.2
O=C(C[C@@H]1CC[C@H]2[C@@H](COC[C@@H](O)CN2Cc2ccccc2F)O1)N[C@@H]1CCN(Cc2ccccc2)C1,.,11.5,.,.,.,.
COc1ccccc1-c1cnc2c(c1)C(=O)N([C@H](C)CO)C[C@@H](C)[C@H](CN(C)Cc1ccc(C(=O)O)cc1)O2,.,-9.1,.,.,.,.
O=C(Nc1ccncc1)c1cc(S(=O)(=O)N2CCCC2)ccc1Cl,-0.2,-4.7,.,9.2,?,-18.0
COc1ccc(S(=O)(=O)N2CCCCCC2)cc1C(=O)Nc1cc(C)ccn1,1.3,-23.5,.,5.2,0.8,-1.1
O=C(Nc1ccc(O)cc1)c1cc(S(=O)(=O)N2CCCC2)ccc1Cl,-1.9,-15.1,14.2,10.6,5.7,98.9*
Cc1ccnc(NC(=O)c2cc(S(=O)(=O)N3CCCCC3)ccc2Cl)c1,0.7,.,40.0*,5.5,3.0,3.1
CC(C)C#Cc1ccc2c(c1)O[C@@H](CN(C)C(=O)NC(C)C)[C@@H](C)CN([C@@H](C)CO)S2(=O)=O,.,9.8,.,.,.,.
CCCCc1ccc(-c2csc(/C(C#N)=C\c3ccco3)n2)cc1,0.7,.,17.7,8.2,2.5,84.0*
O=C(NO)c1ccc(OC(F)F)cc1,-0.5,.,5.3,15.1,72.5*,98.7*
COC(=O)CCCCCCC(=O)Nc1ccc(C2OC(CSc3nc4ccccc4s3)CC(c3ccccc3)O2)cc1 (stereo not given),.,0.5,.,.,.,.
O=C(CCC1N=C2c3ccccc3N=C(SCc3ccc(Cl)cc3)N2C1=O)NCc1ccco1 (stereo not given),1.1,-0.2,5.3,6.8,-1.2,97.6*
C[C@H](CO)N1C[C@H](C)[C@H](CN(C)Cc2ccc(Cl)c(Cl)c2)Oc2ccc(NC(=O)NC3CCCCC3)cc2C1=O,.,2.9,.,.,.,.
COc1ccc(N2CCN(C(=O)CCNC(=O)Cn3ccc4ccccc4c3=O)CC2)cc1,-1.6,.,13.7,11.0,0.9,85.3*
CCN(CCCNC(=O)CNC(=O)Cn1cnc2ccccc2c1=O)c1cccc(C)c1,0.0,-3.7,1.4,7.7,-7.8,.
O=C(Cn1cnc2ccccc2c1=O)NCCC(=O)N1CCN(c2ccccc2)CC1,-2.3,-20.3,20.6,-2.6,4.0,95.8*
CCN(CCCNC(=O)CCNC(=O)Cn1cnc2ccccc2c1=O)c1ccccc1,0.1,-17.2,1.0,7.1,-3.7,98.9*
CN1CCN(C(=O)CCNC(=O)Cn2ccc3ccccc3c2=O)CC1,-0.9,-16.7,1.3,6.0,-9.3,-10.6
CC1(C)CC2(CC(c3ccccc3F)c3ccc(O)c(O)c3O2)NC(=S)N1 (stereo not given),-1.2,.,-0.4,0.5,22.0,99.0*
C[C@H]1CN([C@@H](C)CO)C(=O)c2cc(C3=CCCC3)cnc2O[C@@H]1CN(C)Cc1ccc(C(=O)O)cc1,.,-3.6,.,.,.,.
CO[C@@H]1CN(C)C(=O)c2ccc(NS(=O)(=O)c3ccc(C)cc3)cc2OC[C@H](C)NC[C@@H]1C,.,0.8,.,.,.,.
COc1ccc(/C=C2/C(=O)N(c3ccccc3)N=C2C)cc1,-0.8,-21.0,.,-5.1,3.3,-10.1
COc1ccc(/C=C2/C(=O)N(c3c(F)c(F)c(F)c(F)c3F)N=C2C)cc1,-0.2,-41.1,21.1,6.7,-9.4,90.2*
CC(Sc1nncn1C)C(=O)Nc1ccc(N2CCCCC2)cc1 (stereo not given),-0.9,1.0,.,3.4,-6.4,92.2*
CC(C)n1cnnc1SCC(=O)NCC(=O)Nc1ccc(F)cc1,-0.4,-9.1,.,2.7,-9.0,-2.5
CC(C)n1cnnc1SCC(=O)Nc1ccc(N2CCCCC2)cc1,-1.6,-11.9,.,-5.9,.,98.8*
Cn1nnnc1SCC(=O)Nc1ccc(N2CCOCC2)cc1,2.3,.,15.7,9.5,-0.1,14.9
CC(C)(C)c1nnc(SCC(=O)Nc2ccc(N3CCCCC3)cc2)n1N,-0.2,-8.5,.,0.0,4.0,99.2*
C[C@@H]1CN([C@@H](C)CO)S(=O)(=O)c2ccc(C#CC3CC3)cc2O[C@@H]1CN(C)C,.,-5.9,.,.,.,.
N#Cc1cccc(-c2ccc3c(c2)[C@@H]2[C@@H](CCN2S(=O)(=O)c2ccccc2F)[C@@H](CO)N3)c1,.,-18.0,.,.,.,.
CCCC(=O)Nc1ccc2c(c1)C(=O)N(C)C[C@@H](OC)[C@@H](C)CN(C(C)=O)[C@H](C)CO2,.,8.8,.,.,.,.
CCOC(=O)c1c(CN2CCN(C)CC2)n(-c2ccccc2)c2cc(Br)c(O)cc12,1.9,.,12.3,3.7,.,78.7*
Cn1ccnc1SCC(=O)Nc1ccc2c(c1)OCO2,-2.7,.,1.9,3.5,-8.5,90.4*

# Sorted by SMILES length (lowest first): 3 of the compounds above.
SMILES,MC4R ag barr,UUG fidelity,NALP1 inh,MC4R antag cAMP,HDAC3 inh,ALR inh
CC(C)n1cnnc1SCC(=O)Nc1ccc(N2CCCCC2)cc1,-1.6,-11.9,.,-5.9,.,98.8*
C[C@@H]1CN([C@@H](C)CO)S(=O)(=O)c2ccc(C#CC3CC3)cc2O[C@@H]1CN(C)C,.,-5.9,.,.,.,.
N#Cc1cccc(-c2ccc3c(c2)[C@@H]2[C@@H](CCN2S(=O)(=O)c2ccccc2F)[C@@H](CO)N3)c1,.,-18.0,.,.,.,.

# Additional entries.
SMILES,MC4R ag barr,UUG fidelity,NALP1 inh,MC4R antag cAMP,HDAC3 inh,ALR inh
CCn1c(COc2ccccc2C)nnc1SCC(=O)Nc1ccc2c(c1)OCCO2,-1.2,1.2,16.7,0.0,.,.
COc1ccc(NC(=O)CSc2nnc(CCC(=O)O)c(=O)n2N)cc1,-1.7,.,-11.1,-0.4,-3.4,98.0*
CCn1c(SCC(=O)NNC(=S)Nc2ccc(C)cc2)nnc1-c1ccc(Cl)cc1,-1.9,-2.9,12.1,0.5,-0.2,96.5*
CCOc1ccc(Cc2nnc(SCC(=O)Nc3ccc(OC)cc3)n(N)c2=O)cc1,-0.6,-3.8,.,20.1,-5.6,.
CCn1c(COc2ccc(Cl)cc2)nnc1SCC(=O)Nc1ccc2c(c1)OCCO2,-0.1,-14.9,38.1*,13.8,-0.4,-8.0
C[C@H]1CN([C@@H](C)CO)C(=O)c2cc(-c3cncnc3)cnc2O[C@@H]1CN(C)C(=O)Cc1ccccn1,.,7.4,.,.,.,.
Nn1c(SCC(=O)Nc2ccc3c(c2)OCCO3)nnc1-c1ccccn1,3.4,.,8.2,15.9,-6.0,-3.4
Cc1ccccc1-c1nnc(SCC(=O)Nc2ccc3c(c2)OCCO3)n1N,-1.1,-18.5,18.9,2.2,5.4,98.1*
COc1ccc(NC(=O)CSc2nnc(-c3ccccc3C)n2N)cc1,0.1,-12.1,7.2,5.3,1.8,99.3*
Cc1nnc(SCC(=O)Nc2ccc3c(c2)OCO3)n(N)c1=O,-1.0,-11.0,-2.2,0.8,-0.9,94.5*
Nn1c(SCC(=O)Nc2ccc3c(c2)OCCO3)nncc1=O,-4.0,-24.9,3.8,-3.5,-5.0,89.5*
Nn1cnnc1SCC(=O)Nc1ccc2c(c1)OCO2,2.5,.,1.2,20.2,-0.2,-12.6
O=C(c1cccnc1)N1C[C@H]2[C@@H](c3ccccc31)[C@@H](CO)N2C(=O)Nc1ccccc1,.,64.7,.,.,.,.

# Structural class, the entries above containing a COOH group
SMILES,MC4R ag barr,UUG fidelity,NALP1 inh,MC4R antag cAMP,HDAC3 inh,ALR inh
COc1ccccc1-c1cnc2c(c1)C(=O)N([C@H](C)CO)C[C@@H](C)[C@H](CN(C)Cc1ccc(C(=O)O)cc1)O2,.,-9.1,.,.,.,.
C[C@H]1CN([C@@H](C)CO)C(=O)c2cc(C3=CCCC3)cnc2O[C@@H]1CN(C)Cc1ccc(C(=O)O)cc1,.,-3.6,.,.,.,.
COc1ccc(NC(=O)CSc2nnc(CCC(=O)O)c(=O)n2N)cc1,-1.7,.,-11.1,-0.4,-3.4,98.0*
